Results on 59 molecules are retold here after PubChem BioAssay AID1274 (Emory University Molecular Libraries Screening Center, 2008).

Chains of the proteins cited; added tags and fusions are not shown. Lines headed by an entry give the natural chain unless they say otherwise; changes in a name come on top.
UniProt P14598: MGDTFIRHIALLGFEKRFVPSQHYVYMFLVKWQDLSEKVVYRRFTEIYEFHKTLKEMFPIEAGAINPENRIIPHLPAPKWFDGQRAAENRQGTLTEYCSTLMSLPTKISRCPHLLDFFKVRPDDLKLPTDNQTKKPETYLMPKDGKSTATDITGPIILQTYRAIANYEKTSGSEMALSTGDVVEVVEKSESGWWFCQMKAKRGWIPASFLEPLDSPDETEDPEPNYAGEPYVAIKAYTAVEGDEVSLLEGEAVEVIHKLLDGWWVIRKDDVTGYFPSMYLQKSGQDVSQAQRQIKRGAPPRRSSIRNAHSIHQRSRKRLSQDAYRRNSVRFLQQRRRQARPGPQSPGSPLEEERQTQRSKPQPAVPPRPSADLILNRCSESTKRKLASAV

One may read the inhibition as the drop in the measured response relative to a control, in per cent.

Where “and” joins values, the source holds several entries; their conditions need not be identical. Identical values can stand only once. This is a selection; strong and weak results do not stand in their true shares. Calls of active or inactive are those of the source.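 The calls were made as follows: active = inhibition above about 30% (limit read from the data); inactive = the rest.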

The target in the assay is Neutrophil cytosol factor 1 (Homo sapiens) (UniProt P14598). The experiment in a line: p47phox/p22phox peptide binding inhibitors, primary screen, biochemical, uHTS, NADPH oxidase regulatory subunit (AID 1274).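 Also: 0% = p47phox with labelled peptide and 100% = labelled peptide alone.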 To be noted: fluorescence polarization, 2 h, at 24.7 µM, stronger effect = higher value.
For `Cc1ccc(NP(=O)(Oc2ccccc2)Oc2ccccc2)nc1`, the inhibition is inactive: -2.22%.
With `CCc1nc2c(n1)c1c(non1O)c1c2no[n+]1[O-]` the figure was inactive: -14.7%; with `O=[N+]([O-])c1cc([N+](=O)[O-])c(CCNc2ccccc2)c([N+](=O)[O-])c1`, inactive: -2.86%; with `COc1ccc(C2=NCC(CBr)S2)cc1` (centres undefined), inactive: -2.82%.
With `CC(C)=N/N=C(\N)N[N+](=O)[O-]` the figure was inactive: -0.24%.
With `CN(C)C(=O)OCCc1n(C)cc[n+]1C` the figure was inactive: -5.35%.
In the case of `CC1CCN(C(=O)Oc2c(Cl)cc(Cl)c3cccnc23)CC1`, the inhibition was inactive: -11.1%.
Consider `Nc1ccc([As](=O)(O)c2ccc(N)cc2)cc1`, for which the inhibition was inactive: -7.8%.
With `C[N+]1=C2C=CC=CC=C2SC12C([N+](=O)[O-])=CC([N+](=O)[O-])=C[C-]2[N+](=O)[O-]` (centres undefined) the figure was inactive: 5.79%; with `CCN(/C(=N/P(=O)(N1CCOCC1)N1CCOCC1)N1CCOCC1)c1ccc(OC)cc1`, inactive: 7.44%.
Consider `COc1ccccc1OP(=O)(Nc1ccc(C)cn1)Oc1ccccc1OC`, for which the inhibition is inactive: -5.08%.
With `Cc1ccc(OP(=O)(Nc2nccs2)Oc2ccc(C)cc2)cc1` the figure was inactive: -12%.
On to `CN1CCCC(OC(=O)C(c2ccccc2)c2ccccc2)C1` (centres undefined), for which the inhibition is inactive: 3.83%.
The value for `NC(=O)c1cc([N+](=O)[O-])cc([N+](=O)[O-])c1N` was inactive: 1.99%.
With `Cc1ccc(N/C(=N/P(=O)(N2CCOCC2)N2CCOCC2)N2CCOCC2)cc1` the figure was inactive: -0.76%; with `Nc1cc(N)c2nonc2c1[N+](=O)[O-]`, inactive: -15.2%; with `CC(C)CC(=O)NC(Sc1ccc(Cl)cc1)C(Cl)(Cl)Cl` (centres undefined), inactive: -8.49%.
The value for `Oc1ccccc1CNc1ccccn1` was inactive: -0.41%; that for `O=C(NC(Sc1ccncn1)C(Cl)(Cl)Cl)c1ccccc1` (centres undefined) was inactive: -18.6%.
Turning to `Cc1c2non([O-])c-2c(C)[n+](=O)[n+]1[O-]`, the inhibition is inactive: -25.5%.
As for `Cc1cc(SC(NC(=O)c2ccc(F)cc2)C(Cl)(Cl)Cl)ncn1` (centres undefined), the inhibition was inactive: -23.4%.
With `CCOP(=O)(Nc1ccccc1)OCC` the figure was inactive: -8.85% and inactive: -14%; with `Cc1ccc(NP(=O)(Oc2ccccc2F)Oc2ccccc2F)nc1`, inactive: -7.37%; with `CC(=O)Nc1ccc([As](=O)(O)O)cc1`, inactive: -37.7%.
With `O=C(O)c1ccccc1[As](=O)(O)O` the figure was inactive: 8.29%.
The value for `O=P(Nc1nc2ccc(Cl)cc2s1)(c1ccccc1)c1ccccc1` was inactive: -7.09%; that for `CCN(N=Nc1nonc1N)c1nonc1N` was inactive: -3.17%.
Consider `Nc1cccc2ccc([As](=O)(O)O)cc12`, for which the inhibition was inactive: 11%.
The value for `CCNC(=S)/N=C(\N)N[N+](=O)[O-]` was inactive: -3.21%.
With `O=C(NC1CCS(=O)(=O)C1)NP(=S)(Oc1ccccc1)Oc1ccccc1` (centres undefined) the figure was inactive: 5.62%; with `c1ccc(-c2nn[nH]n2)c(-c2nn[nH]n2)c1`, inactive: 14.4%.
With `CCOC(=O)NC(Sc1ccccc1)C(Cl)(Cl)Cl` (centres undefined) the figure was inactive: -21.7%.
As to `Cc1ccc(NP(=O)(Oc2cccc(C)c2)Oc2cccc(C)c2)nc1`, the inhibition was inactive: -4.91%.
With `Cc1ccccc1OP(=O)(Nc1ccccn1)Oc1ccccc1C` the figure was inactive: -16%; with `O=c1c2cc([N+](=O)[O-])ccc2[nH]c2c([N+](=O)[O-])cc([N+](=O)[O-])cc12`, inactive: -12.8%; with `CN(C)C(=O)Oc1noc2ccccc12`, inactive: 3.04%.
With `COC(=O)c1cc2c(s1)N=C(c1ccccc1)N(C)P2(=O)N1CCOCC1` (centres undefined) the figure was inactive: 0.33%; with `Cc1ccc(OP(=O)(Nc2ccccn2)Oc2ccc(C)cc2)cc1`, inactive: -5.99%; with `CC(=O)NC(SC(=S)N(CC(C)C)CC(C)C)C(Cl)(Cl)Cl` (centres undefined), inactive: 6.56%.
The value for `CCC(=O)N1C2C3N(C(=O)CC)C1C1N(C(=O)CC)C(C(N1C(=O)CC)N3C(=O)CC)N2C(=O)CC` was inactive: -3.92%.
As for `CC(C)(C)C(=O)NC(Sc1ccccc1)C(Cl)(Cl)Cl` (centres undefined), the inhibition is inactive: -3.31%.
With `O=P1(Nc2nc3ccc(Cl)cc3s2)COc2ccccc2O1` (centres undefined) the figure was inactive: -10.2%; with `CCOc1ccc(C2=NCC(CBr)S2)cc1` (centres undefined), inactive: 2.82%.
As for `CC(=O)Nc1ccc([As](=O)(O)O)c(O)c1`, the inhibition was inactive: 4.48%.
With `CC(=O)Nc1ccc(Oc2c([N+](=O)[O-])cc([N+](=O)[O-])cc2[N+](=O)[O-])cc1` the figure was inactive: 0.24%.
The value for `C[C@H]1OP(=O)(Oc2ccccc2)C[C@@H]2O[C@@H]21` (some centres undefined) was inactive: -11.3%; that for `C[C@@H]1C=CCP(=O)(Oc2ccccc2)O1` (some centres undefined) was inactive: -14%.
With `c1nnnn1CCn1cnnn1` the figure was inactive: -11.9%; with `CC(C)C(=O)NC(Sc1ccccc1)C(Cl)(Cl)Cl` (centres undefined), inactive: -1.53%.
As for `O=P(Nc1nccs1)(c1ccccc1)c1ccccc1`, the inhibition is inactive: -14%.
In the case of `O=P(Nc1nc2ccccc2s1)(c1ccccc1)c1ccccc1`, the inhibition is inactive: -12.4%.
On to `C[C@H]1OP(=O)(Oc2ccccc2)[C@H](O)[C@H](O)[C@H]1N=[N+]=[N-]` (some centres undefined), for which the inhibition is inactive: -3.75%.
With `O=P(Nc1ccccn1)(c1ccc(Br)cc1)c1ccc(Br)cc1` the figure was inactive: -3.41%; with `C(Cc1nn[nH]n1)Cc1nn[nH]n1`, inactive: -7.03%.
The value for `Nc1ccc([As](=O)(O)c2ccc([N+](=O)[O-])cc2)cc1` was inactive: -7.6%; that for `O=C(OC1CN2CCC1CC2)c1cccc(Cl)c1` (centres undefined) was inactive: -8%.
With `O=[N+]([O-])c1ncn(CCn2cnc([N+](=O)[O-])n2)n1` the figure was inactive: -13.5%; with `CC(=O)NC(SC(=S)N(C)C)C(Cl)(Cl)Cl` (centres undefined), inactive: -0.62%; with `O=[As](O)(c1ccccc1)c1ccc(O)cc1`, inactive: 1.49%.
